The text below walks through data of US20130310344A1, “N-ACYLSULFONAMIDE APOPTOSIS PROMOTERS” (ASTRAZENECA AB, priority 2010, published 2013).

Amino acid sequences for entries named in this document (tags omitted). Residues count along the entry.
UniProt Q07817, 1-209 limits assumed: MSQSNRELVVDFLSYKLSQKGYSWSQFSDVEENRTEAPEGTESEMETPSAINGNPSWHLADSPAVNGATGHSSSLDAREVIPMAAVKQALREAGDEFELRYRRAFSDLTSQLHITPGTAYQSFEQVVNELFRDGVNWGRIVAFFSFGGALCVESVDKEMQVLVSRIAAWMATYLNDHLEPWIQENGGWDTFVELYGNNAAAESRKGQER
UniProt P10415, 1-204 limits assumed: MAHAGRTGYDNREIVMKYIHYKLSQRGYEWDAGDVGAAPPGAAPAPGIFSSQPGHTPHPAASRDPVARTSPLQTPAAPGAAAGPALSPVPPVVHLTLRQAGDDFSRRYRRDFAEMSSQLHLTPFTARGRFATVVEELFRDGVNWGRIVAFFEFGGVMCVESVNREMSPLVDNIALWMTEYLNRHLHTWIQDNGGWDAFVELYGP

Test [1] has as its target Bcl-XL (Homo sapiens, UniProt Q07817). The experiment in a line: Bcl-XL FP assay (competitive fluorescence polarization binding assay, FITC-Bim BH-3 peptide tracer). As to conditions: read-out: Bcl-XL FP assay IC50; C-terminal 6×HIS tagged Bcl-XL (aa 1-209), 0.8 nM; 2 nM FITC-Bim peptide tracer; tested form: formic acid salt; mixture of two diaster.
Test [2] addresses Bcl-2 (Homo sapiens, UniProt P10415). The experiment in a line: Bcl-2 FP assay (competitive fluorescence polarization binding assay, FITC-Bim BH-3 peptide tracer). As to conditions: read-out: Bcl-2 FP assay IC50; c-terminal 6×HIS tagged Bcl-2 (aa 1-204), 1.3 nM; 2 nM FITC-Bim peptide tracer; tested form: formic acid salt; mixture of two diaster.

For orientation: IC50 means the point on the concentration scale where inhibition reaches its midpoint. As for `O=C(NS(=O)(=O)c1ccc(N[C@H](CCN2CCN(CC(O)CF)CC2)CSc2ccccc2)c(S(=O)(=O)C(F)(F)F)c1)c1ccc(N2CCC([C@@H](O)c3ccccc3-c3ccc(Cl)cc3)CC2)cc1` (some centres unmarked), the figures for the IC50 in test [1] and in test [2] were 2 nM and 1 nM, respectively.
